The values below come from US20240423977A1, “FIVE-MEMBERED RING-FUSED SIX-MEMBERED RING COMPOUND, PREPARATION METHOD THEREFOR, AND PHARMACEUTICAL COMPOSITION AND USE THEREOF” (HANGZHOU POLYMED BIOPHARMACEUTICALS, INC., priority 2022, published 2024).

Protein sequences, listed by entry. Tags and fused reporters are not part of them.
UniProt Q9NWZ3, whole entry: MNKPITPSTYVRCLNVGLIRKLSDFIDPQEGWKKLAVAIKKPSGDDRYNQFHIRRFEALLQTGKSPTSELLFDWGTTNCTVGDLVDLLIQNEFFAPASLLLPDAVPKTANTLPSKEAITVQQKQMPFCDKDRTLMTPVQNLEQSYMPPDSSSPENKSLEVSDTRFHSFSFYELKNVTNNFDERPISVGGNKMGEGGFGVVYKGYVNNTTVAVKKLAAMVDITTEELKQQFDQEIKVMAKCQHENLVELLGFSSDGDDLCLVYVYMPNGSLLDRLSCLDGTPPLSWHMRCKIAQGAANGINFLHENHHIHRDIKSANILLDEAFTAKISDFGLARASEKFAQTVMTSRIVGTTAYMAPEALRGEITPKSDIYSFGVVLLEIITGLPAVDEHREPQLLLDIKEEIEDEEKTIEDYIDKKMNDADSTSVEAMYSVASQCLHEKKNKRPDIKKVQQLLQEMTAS

Read-outs that look alike come from different tables or passages of the source.

Test [1] concerns the target IRAK4 protein in THP-1 cells (Homo sapiens (Human), UniProt Q9NWZ3). The test is described as follows: PROTAC-induced IRAK4 protein degradation in THP-1 cells (Western Blot). Particulars: for IRAK4 degradation rate 24 hours after administration of the compounds with a concentration of 1 μM: Western blotting; for DC50: read-out: IRAK4 DC50, concentration that degraded 50% of IRAK4, Western blotting, 24 hours after administration. The protocol:
2.1 Based on the experimental method of Western Blot, specific antibodies were used to stain the THP-1 cell samples treated by gel electrophoresis, and the degrading activity of the compounds on the IRAK4 protein in THP-1 cells was determined by analyzing the position and depth of staining. The concentrations of compound for the detection included 0 μM, 0.3 μM, 1 μM and 3 μM, and the cells were treated by the compound for 8 hours, 16 hours, 24 hours, and 48 hours. Glyceraldehyde-3-phosphate dehydrogenase (GAPDH) is an internal reference protein in this experiment.
Electrophoresis buffer: 50 mL MOPS SDS Running Buffer (20×) and 50 mL 20×TBS Tween-20 buffer were diluted with deionized water to 1 L as the electrophoresis buffer;
5% skim milk (w/v): 2.5 g skim milk was diluted with 50 mL 1×TBS Tween-20 buffer to prepare 5% skim milk;
5% BSA (w/v): 2.5 g BSA was diluted with 50 mL 1×TBS Tween-20 buffer to prepare 5% BSA;
Anti-IRAK4 antibody was diluted with 5% BSA at 1:1000 into a primary antibody working solution;
Goat Anti-Rabbit IgG H&L (HRP) was diluted with 5% BSA at 1:2000 into a second antibody working solution; and
Goat Anti-Mouse IgG H&L (HRP) was diluted with 5% BSA at 1:2000 into a second antibody working solution.
THP-1 cells were plated in a 6-well plate at a density of 1.5×10^6 cells per ml and incubated for 2 hours in a cell culture incubator under 37° C. and 5% CO2. The compound was diluted with DMSO to 0.6 mM, 0.2 mM and 0.06 mM respectively. 10 μL of compound solution was added to the corresponding wells, and continued to incubate in the incubator for 16 hours, 24 hours and 48 hours respectively. The compound-treated THP-1 cells in the well were collected, added with 120 μL of RIPA lysate containing protease inhibitor, Phosphatase Inhibitor Cocktail 2 and Phosphatase Inhibitor Cocktail 3, lysed on wet ice for 30 minutes, and then the cells lysate was centrifuged at a high speed and a low temperature for 5 minutes to collect the supernatant. The protein concentration of the cell sample was determined according to the instructions in the Pierce™ BCA Protein Assay Kit.
The concentration of the sample was adjusted to be consistent using lysis buffer and NuPAGE® LDS sample buffer containing 1M DTT. The samples were heated at 95° C. for 5 minutes and centrifuged at a low temperature and at a high speed. 20 μL of the prepared protein sample and 4 μL of PageRuler Prestained Protein Ladder were added into the gel well for running at 80V voltage for 0.5 hours, then the voltage was adjusted to 120V for further running for 1.5 hours. The gel was removed and the proteins in the gel were transferred to the IBlotTM 2 transfer membrane set at 20V. After successful transfer, bands at 65 kDa-40 kDa and 40 kDa-30 kDa were cut respectively. The membranes were blocked with 5% skim milk for 1 hour at room temperature. The membranes were washed three times with 1× concentration of TBST, then incubated with IRAK4 antibody working solution overnight at 4° C. The IRAK4 antibody working solution was discarded, and the membranes were washed three times with 1×concentration of TBST, and incubated with Goat Anti-Rabbit IgG H&L (HRP) working solution and Goat Anti-Mouse IgG H&L (HRP) working solution at room temperature. After 1 hour of incubation, the antibody working solution was discarded and the membranes were washed three times with 1× concentration of TBST. According to the instructions of the kit SuperSignal™ West Femto Maximum Sensitivity Substrate, the reagents in the kit were mixed in equal volume proportions to prepare a luminescent liquid mixture. The membranes were incubated for 1 minute, then removed for exposure.
The results of Western blotting 24 hours after administration of the compounds with a concentration of 1 μM were shown in Table 3: […]
(In general: A western blot detects proteins with antibodies after separation by electrophoresis.)

The next test has as its target kinase IRAK4 (Homo sapiens (Human), UniProt Q9NWZ3). The test is described as follows: Inhibitory effects of compounds on kinase activity (fluorescence microfluidic mobility detection, competitive with ATP). Particulars: read-out: IRAK4 IC50, IRAK4 6 nM, ATP 10 μM. How it is done: Based on an experimental method of fluorescence microfluidic mobility detection, an IC50 value of competitive binding of kinase IRAK4 to ATP by the compounds was determined. The initial detection concentration of the compounds was 10 μM, diluted 4-fold gradient down to […], and tested in duplicate. Among them, commercial staurosporine was the standard control substance in this experiment.
1) IRAK4 kinase was dissolved in kinase buffer (50 mM HEPES pH 7.5, 10 mM MgCl2, 2 mM DTT and 0.01% Brij-35) to a final concentration of 6 nM.
2) The substrate peptide FAM-P8 and ATP were dissolved in the above kinase buffer. The final concentrations of the IRAK4 substrate peptide FAM-P8 and ATP were 3 μM and 10 μM respectively.
3) Dilution of the compounds: the compound was first diluted to 50 μM, and then diluted down with a 4-fold gradient of DMSO. The solution without the compound and kinase is used as a blank control, corresponding to the “minimum value” shown below; and the solution without the compound but with kinase, adenosine 5′-triphosphate disodium salt hydrate, DMSO and buffer is used as a positive control, corresponding to the “maximum value” shown below. 4) Kinase reaction and termination: 10 μL of kinase buffer was added to a 384-well plate containing 5 μL of the compound to be tested, and incubated at room temperature for 10 minutes. Another 10 μL of buffer containing the substrate peptide and adenosine 5′-triphosphate disodium salt hydrate was added to the 384-well plate. After incubation at 28° C. for one hour, 25 μL stop solution (100 mM HEPES pH 7.5, 50 mM EDTA, 0.2% Coating Reagent #3 and 0.015% Brij-35) was added to each well to terminate the reaction.
5) Data reading: the CaliperEZ Reader II instrument was used to read the conversion rate data. Conditions: downstream voltage −500V, upstream voltage −2250V, base pressure −0.5 PSI, and screening pressure −1.2 PSI.
6) Data calculation: the conversion rate data was copied from CaliperEZ Reader II and converted into inhibition rate data. The calculation formula is as follows: […]

Take `COc1cc2nn(C3CCN(CC(=O)N4CCN(c5ccc6c(c5)C(=O)N(C5CCC(=O)NC5=O)C6=O)CC4)CC3)cc2cc1NC(=O)c1cccc(C(F)(F)F)n1` (stereo not shown): in test [1], the “IRAK4 degradation rate 24 hours after administration of the compounds with a concentration of 1 μM” value is 75~100% and the DC50 stood at 4.33 nM. For the same compound, at kinase IRAK4 (Table 1, class symbols), the IC50 (commonly the concentration at which inhibition is half-maximal) was less than 100 nM. For the same compound, the IC50 at kinase IRAK4 (Table 2, substrate FAM-P8 3 μM) amounted to 16.4 nM.
For `O=C1CCC(N2C(=O)c3ccc(N4CCC(C(=O)N5CCC6(CC5)CN(c5nc7nc(N8CC[C@@H](O)C8)c(NC(=O)c8cccc(C(F)(F)F)n8)cc7o5)C6)CC4)cc3C2=O)C(=O)N1` (stereo partly shown), in test [1], the DC50 was greater than 1000 nM.
As to `[2H]C([2H])([2H])C(O)(c1cc2nn(C3CC4(CCN(C(=O)C5CCN(c6ccc7c(c6)C(=O)N(C6CCC(=O)NC6=O)C7=O)CC5)CC4)C3)cc2cc1NC(=O)c1cccc(C(F)(F)F)n1)C([2H])([2H])[2H]` (stereo not shown), the DC50 in test [1] amounted to 7.2 nM. Moreover, at kinase IRAK4 (Table 2, substrate FAM-P8 3 μM), the IC50 was determined as 10.2 nM.
As for `COc1cc2nn(C3CC4(CCN(C(=O)C5CCN(c6ccc7c(c6)C(=O)N(C6CCC(=O)NC6=O)C7=O)CC5)CC4)C3)cc2cc1NC(=O)c1cccc(C(F)(F)F)n1` (single isomer, unassigned), the “IRAK4 degradation rate 24 hours after administration of the compounds with a concentration of 1 μM” value in test [1] is listed as 75~100%.
In the case of `COc1cc2c(cc1NC(=O)c1cccc(C(F)(F)F)n1)CN(C1CC3(CCN(C(=O)C4CCN(c5ccc6c(c5)C(=O)N(C5CCC(=O)NC5=O)C6=O)CC4)CC3)C1)C2=O` (stereo not shown), the DC50 in test [1] was 26.2 nM.
In the case of `[2H]C([2H])([2H])Oc1cc2nn(C3CC4(CCN(C(=O)C5CCN(c6ccc7c(c6)C(=O)N(C6CCC(=O)NC6=O)C7=O)CC5)CC4)C3)cc2cc1NC(=O)c1cccc(C(F)(F)F)n1` (stereo not shown), the DC50 in test [1] is 6.6 nM.
